The list shows a part of the results, in another mix than the full data. Activity calls are given as the source filed them.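 Rule for the calls: active = mean activation over triplicate runs exceeds the adjusted cutoff derived for the parent primary screen (cut at about 19% in these data); inactive = the rest.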
Experiment: fluorescence polarization artefacts, Cy5-IP20 alone – biochemical, triplicate, artefact control for PKA-R1A activator project, confirmation (AID 504799);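 note: no PKA protein present so any polarization rise reflects compound interference; 0% = tracer peptide mix alone and 100% = mix with added PKA catalytic subunit; higher means stronger polarization artifact and likely false positive in parent screen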
Settings: Cy5-IP20 peptide alone, fluorescence polarization artifact counterscreen; at 11.4 µM; hits give high values

CC(C)c1ccc(OP(=O)(Nc2ccccn2)Oc2ccccc2F)cc1 (stereo unspecified)
activation: inactive: -1.91%

Reference: PubChem BioAssay AID504799 (The Scripps Research Institute Molecular Screening Center, 2011)
